Target: T1, Androgen receptor (Rattus norvegicus, UniProt P15207)
T1 sequence (P15207 whole entry): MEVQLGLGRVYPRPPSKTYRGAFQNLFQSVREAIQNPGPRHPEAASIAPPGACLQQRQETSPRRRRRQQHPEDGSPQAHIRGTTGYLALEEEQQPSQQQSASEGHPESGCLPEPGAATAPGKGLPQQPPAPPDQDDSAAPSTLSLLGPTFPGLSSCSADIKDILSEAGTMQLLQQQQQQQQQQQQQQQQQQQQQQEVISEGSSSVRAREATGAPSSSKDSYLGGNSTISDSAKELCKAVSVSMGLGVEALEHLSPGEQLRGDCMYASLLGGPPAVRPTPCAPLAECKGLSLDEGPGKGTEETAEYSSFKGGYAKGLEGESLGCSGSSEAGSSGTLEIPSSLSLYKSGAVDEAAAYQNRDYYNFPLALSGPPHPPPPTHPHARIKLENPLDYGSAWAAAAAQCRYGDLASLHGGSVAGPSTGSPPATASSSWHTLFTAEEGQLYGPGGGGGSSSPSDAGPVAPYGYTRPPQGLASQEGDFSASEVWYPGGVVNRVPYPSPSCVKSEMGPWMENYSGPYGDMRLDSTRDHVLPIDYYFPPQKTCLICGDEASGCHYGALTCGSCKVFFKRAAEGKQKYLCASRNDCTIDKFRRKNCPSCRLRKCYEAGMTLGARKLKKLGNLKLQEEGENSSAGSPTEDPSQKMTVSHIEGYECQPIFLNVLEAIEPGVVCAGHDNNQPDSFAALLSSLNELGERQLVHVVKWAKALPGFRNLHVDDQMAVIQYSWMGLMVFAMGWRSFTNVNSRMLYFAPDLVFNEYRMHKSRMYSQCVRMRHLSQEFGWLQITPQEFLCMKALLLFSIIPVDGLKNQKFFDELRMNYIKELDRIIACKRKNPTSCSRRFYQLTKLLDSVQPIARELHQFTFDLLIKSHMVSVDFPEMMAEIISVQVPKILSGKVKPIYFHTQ

Question: Which IC50 does the source give for `O=C1CCC(=C2C[C@H]3[C@@H](C2)[C@H]2C[C@@H]3[C@@H](O)C2)CC1` here?
Answer: 2320 nM

From ChEMBL document CHEMBL1133537, “Chiral derivatives of 2-cyclohexylideneperhydro-4,7-methanoindenes, a novel class of nonsteroidal androgen receptor ligand: synthesis, X-ray analysis, and biological activity” (J Med Chem, 2000)
